# Measured values as given in article PMC5773950 (British Journal of Pharmacology, 2018).
# Sequences of proteins named here, by UniProt entry; tags and fusion partners are left off.
# UniProt P08908, whole entry: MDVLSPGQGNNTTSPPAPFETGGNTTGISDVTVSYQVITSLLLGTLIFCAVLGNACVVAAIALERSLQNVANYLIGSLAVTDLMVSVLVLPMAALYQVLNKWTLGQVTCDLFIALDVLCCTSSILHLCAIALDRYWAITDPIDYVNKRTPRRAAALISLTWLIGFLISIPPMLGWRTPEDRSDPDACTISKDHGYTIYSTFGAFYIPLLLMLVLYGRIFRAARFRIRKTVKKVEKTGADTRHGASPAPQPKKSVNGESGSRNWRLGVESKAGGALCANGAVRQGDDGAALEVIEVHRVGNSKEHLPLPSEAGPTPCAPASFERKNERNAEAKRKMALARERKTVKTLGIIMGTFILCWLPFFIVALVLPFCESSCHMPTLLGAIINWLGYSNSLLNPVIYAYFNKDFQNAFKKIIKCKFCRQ
# UniProt P28223, whole entry: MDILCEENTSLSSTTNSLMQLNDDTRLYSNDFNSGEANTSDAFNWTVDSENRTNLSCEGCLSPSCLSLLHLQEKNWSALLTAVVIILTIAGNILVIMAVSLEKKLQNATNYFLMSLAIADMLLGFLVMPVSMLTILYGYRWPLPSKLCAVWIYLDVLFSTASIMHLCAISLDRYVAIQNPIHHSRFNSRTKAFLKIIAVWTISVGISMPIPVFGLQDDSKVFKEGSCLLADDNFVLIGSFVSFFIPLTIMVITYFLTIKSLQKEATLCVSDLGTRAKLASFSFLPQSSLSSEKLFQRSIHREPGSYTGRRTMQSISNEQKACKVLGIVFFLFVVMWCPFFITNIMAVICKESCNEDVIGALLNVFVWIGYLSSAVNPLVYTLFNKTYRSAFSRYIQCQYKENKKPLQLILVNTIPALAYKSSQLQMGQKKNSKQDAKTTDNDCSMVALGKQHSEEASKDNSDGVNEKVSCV
# Assays:
# 5‐HT1A receptor = 5‐HT1A receptor (Homo sapiens, UniProt P08908); test: biochemical; assay type: binding
# 5‐HT2A receptor = 5‐HT2A receptor (Homo sapiens, UniProt P28223); test: biochemical; assay type: binding
# [1] = human
# [2] = human; remark: listed apart in the source
compound,measurement,setting,value
CN1CC[C@]23c4c5ccc(O)c4O[C@H]2C(=O)CC[C@H]3[C@H]1C5 [Hydromorphone],Ki,5‐HT1A receptor,> 17 µM
same,Ki,5‐HT2A receptor,> 13 µM
same,"WHO database: cases of serotonin syndrome, only suspected cause",[1],3
same,"WHO database: cases of serotonin syndrome, only suspected cause or among others",[1],41
same,Medline database: number of published cases of serotonin syndrome,[2],2
